{"sequences": {"note": "Sequences of proteins named here, by UniProt entry; tags and fusion partners are left off. A change or cut given only in a name is not applied to a line headed by its entry.", "UniProt P10820": "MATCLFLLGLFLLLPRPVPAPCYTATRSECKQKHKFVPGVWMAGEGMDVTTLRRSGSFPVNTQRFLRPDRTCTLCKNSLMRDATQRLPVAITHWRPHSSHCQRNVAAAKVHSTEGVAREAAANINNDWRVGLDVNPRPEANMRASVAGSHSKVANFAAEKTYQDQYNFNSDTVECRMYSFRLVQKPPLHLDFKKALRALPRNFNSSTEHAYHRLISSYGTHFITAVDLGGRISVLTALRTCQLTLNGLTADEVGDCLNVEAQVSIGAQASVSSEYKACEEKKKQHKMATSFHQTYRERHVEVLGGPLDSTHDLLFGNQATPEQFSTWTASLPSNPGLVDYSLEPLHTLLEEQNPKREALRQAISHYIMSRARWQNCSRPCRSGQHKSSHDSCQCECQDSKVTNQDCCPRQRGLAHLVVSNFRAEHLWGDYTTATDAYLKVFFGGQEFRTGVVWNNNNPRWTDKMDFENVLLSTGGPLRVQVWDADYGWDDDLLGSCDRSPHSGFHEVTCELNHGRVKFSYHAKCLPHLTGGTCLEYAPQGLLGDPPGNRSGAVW"}, "source": "patent US9896443B2", "about": "“Perforin inhibiting benzenesulfonamide compounds, preparation and uses thereof” (Peter MacCallum Cancer Institute, priority 2012, dated 2018)", "target": "recombinant perforin (UniProt P10820)", "assay_type": "cell-based", "details": "read-out: Jurkat IC50; lysis of Jurkat T lymphoma cells by recombinant perforin, 0.1% BSA, 30 min pre-incubation, 4 hours at 37° C.", "procedure": "Inhibition of perforin-mediated lysis of Jurkat cells.\nThe ability of the compounds to inhibit the lysis of nucleated (Jurkat T lymphoma) cells in the presence of 0.1% BSA, as measured by release of ^51Cr was measured. Jurkat target cells were labelled by incubation in medium with 100 μCi ^51Cr for one hour. The cells were then washed three times to remove unincorporated isotope and re-suspended at 1×10^5 cells per mL in RPMI buffer supplemented with 0.1% BSA. […] Each data point was performed in triplicate and an IC50 was calculated from the range of concentrations described to above.", "note": "Counter-ions that a name gives are not always drawn.", "data": [{"smiles": "CN1Cc2cc(-c3ccc(-c4cncc(NS(=O)(=O)c5ccc(F)cc5F)c4)s3)ccc2C1=O", "note": "[Compound 1.Na, 2,4-Difluoro-N-(5-(5-(2-methyl-1-oxoisoindolin-5-yl)thiophen-2-yl)pyridin-3-yl)benzenesulfonamide, sodium salt]", "values": [{"measurement": "IC50", "value": 1.59, "unit": "µM"}]}, {"smiles": "COc1ccc(S(=O)(=O)Nc2cncc(-c3ccc(-c4ccc5c(c4)CN(C)C5=O)s3)c2)cc1OC", "note": "[Compound 21.Na, 3,4-Dimethoxy-N-(5-(5-(2-methyl-1-oxoisoindolin-5-yl)thiophen-2-yl)pyridin-3-yl)benzenesulfonamide, sodium salt]", "values": [{"measurement": "IC50", "value": 13.8, "unit": "µM"}]}]}
